Protein sequences, listed by entry. Tags and fused reporters are not part of them.
UniProt P31645, whole entry: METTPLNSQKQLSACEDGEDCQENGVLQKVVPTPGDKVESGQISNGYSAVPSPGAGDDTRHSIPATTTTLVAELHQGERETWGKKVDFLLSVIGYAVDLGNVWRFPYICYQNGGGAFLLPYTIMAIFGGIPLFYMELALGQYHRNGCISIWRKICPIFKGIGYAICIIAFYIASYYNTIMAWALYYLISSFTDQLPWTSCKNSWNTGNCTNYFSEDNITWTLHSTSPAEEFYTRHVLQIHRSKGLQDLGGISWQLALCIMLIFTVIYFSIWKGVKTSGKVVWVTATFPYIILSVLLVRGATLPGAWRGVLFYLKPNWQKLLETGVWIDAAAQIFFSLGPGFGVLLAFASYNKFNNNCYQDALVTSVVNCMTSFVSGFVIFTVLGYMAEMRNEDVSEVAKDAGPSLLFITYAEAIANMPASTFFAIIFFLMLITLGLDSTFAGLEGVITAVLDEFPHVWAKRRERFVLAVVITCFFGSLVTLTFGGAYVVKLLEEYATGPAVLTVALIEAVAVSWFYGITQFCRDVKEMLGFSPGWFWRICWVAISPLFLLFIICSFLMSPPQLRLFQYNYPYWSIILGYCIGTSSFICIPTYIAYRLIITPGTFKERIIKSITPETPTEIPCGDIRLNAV
UniProt P23975, whole entry: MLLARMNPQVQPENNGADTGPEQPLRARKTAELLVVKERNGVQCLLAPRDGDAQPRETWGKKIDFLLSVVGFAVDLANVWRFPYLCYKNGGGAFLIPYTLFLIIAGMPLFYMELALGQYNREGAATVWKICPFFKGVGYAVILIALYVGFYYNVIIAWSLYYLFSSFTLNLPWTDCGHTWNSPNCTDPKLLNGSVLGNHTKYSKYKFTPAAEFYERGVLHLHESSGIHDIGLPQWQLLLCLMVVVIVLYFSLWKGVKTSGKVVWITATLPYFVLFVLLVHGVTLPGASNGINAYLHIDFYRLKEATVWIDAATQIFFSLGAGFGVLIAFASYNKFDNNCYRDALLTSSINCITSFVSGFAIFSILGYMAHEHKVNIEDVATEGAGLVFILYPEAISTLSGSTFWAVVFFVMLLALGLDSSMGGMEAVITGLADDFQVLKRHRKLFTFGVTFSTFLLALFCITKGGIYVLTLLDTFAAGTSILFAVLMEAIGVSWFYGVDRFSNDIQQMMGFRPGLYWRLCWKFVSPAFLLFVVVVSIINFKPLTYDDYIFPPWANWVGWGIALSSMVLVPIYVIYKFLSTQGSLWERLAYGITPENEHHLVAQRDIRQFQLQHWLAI
UniProt Q01959, whole entry: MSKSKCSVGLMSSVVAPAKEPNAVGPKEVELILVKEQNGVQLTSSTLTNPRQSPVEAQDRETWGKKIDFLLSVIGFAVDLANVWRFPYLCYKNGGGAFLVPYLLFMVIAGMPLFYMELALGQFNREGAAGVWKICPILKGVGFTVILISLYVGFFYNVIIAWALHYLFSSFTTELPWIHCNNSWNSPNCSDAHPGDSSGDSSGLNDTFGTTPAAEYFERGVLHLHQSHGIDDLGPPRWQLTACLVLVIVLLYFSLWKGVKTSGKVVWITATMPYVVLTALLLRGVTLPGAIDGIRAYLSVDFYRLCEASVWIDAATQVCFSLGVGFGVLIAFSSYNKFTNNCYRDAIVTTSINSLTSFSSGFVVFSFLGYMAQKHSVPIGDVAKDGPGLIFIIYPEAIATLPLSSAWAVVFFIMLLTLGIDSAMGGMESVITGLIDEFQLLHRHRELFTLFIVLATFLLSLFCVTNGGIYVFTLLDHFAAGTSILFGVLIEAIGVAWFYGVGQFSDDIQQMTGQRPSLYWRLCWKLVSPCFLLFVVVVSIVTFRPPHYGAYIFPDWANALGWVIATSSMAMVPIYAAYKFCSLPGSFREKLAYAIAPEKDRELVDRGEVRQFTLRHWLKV
UniProt P23977, whole entry: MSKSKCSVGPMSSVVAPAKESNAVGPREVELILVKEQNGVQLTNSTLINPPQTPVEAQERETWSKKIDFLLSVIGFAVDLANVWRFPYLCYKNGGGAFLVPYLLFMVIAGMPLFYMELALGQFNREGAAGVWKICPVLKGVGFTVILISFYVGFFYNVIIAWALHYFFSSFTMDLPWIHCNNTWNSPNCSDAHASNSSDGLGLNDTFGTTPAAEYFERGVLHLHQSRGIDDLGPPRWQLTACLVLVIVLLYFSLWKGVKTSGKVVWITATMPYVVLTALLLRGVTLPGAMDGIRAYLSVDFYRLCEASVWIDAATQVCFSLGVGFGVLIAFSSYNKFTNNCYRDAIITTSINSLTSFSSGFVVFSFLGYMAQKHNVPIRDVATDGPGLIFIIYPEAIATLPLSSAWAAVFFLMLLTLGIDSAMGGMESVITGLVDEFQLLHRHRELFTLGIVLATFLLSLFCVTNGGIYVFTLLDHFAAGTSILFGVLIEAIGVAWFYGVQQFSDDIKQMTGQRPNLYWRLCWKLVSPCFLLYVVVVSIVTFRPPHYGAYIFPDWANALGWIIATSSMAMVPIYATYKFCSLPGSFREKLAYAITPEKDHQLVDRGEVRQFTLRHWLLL

In patent US20150196531A1, “Methods and Compositions For Treating Sleep-Related Breathing Disorders” (Sunovion Pharmaceuticals Inc., priority 2007, published 2015):

Tests used:
[1] = target: recombinant human serotonin transporter expressed in HEK-293 cells (Homo sapiens, UniProt P31645); conditions: read-out: Inhibition of monoamine uptake, Human 5-HT, IC50
[2] = target: recombinant human norepinephrine transporter expressed in MDCK cells (Homo sapiens, UniProt P23975); conditions: read-out: Inhibition of monoamine uptake, Human NE, IC50, [3H]Norepinephrine uptake
[3] = target: T1, cloned human norepinephrine receptor expressed in MDCK cells (NE transporter) (Homo sapiens, UniProt P23975); assay: Radioligand binding assay, [125I]-RTI-55; conditions: [125I]-RTI-55, MDCK cells
T1 construct: expressed in transfected cells; host or cells: MDCK
Protocol: (§1) The IC50 values (and calculated Ki values) for inhibition of the binding of [^125I]-RTI-55 to the cloned human norepinephrine receptor expressed in MDCK cells were determined according to Shearman L P, McReynolds A M, Zhou F C, Meyer J S, “Relationship between [125I]RTI-55-labeled cocaine binding sites and the serotonin transporter in rat placenta,” American Journal of Physiology 275: C1621-9 (1998).

[4] = target: T2, cloned human serotonin receptor expressed in HEK293 cells (5-HT transporter) (Homo sapiens, UniProt P31645); assay: Radioligand binding assay, [3H]-paroxetine
T2 construct: expressed in transfected cells; host or cells: HEK293
Protocol: as §1

[5] = target: recombinant human dopamine transporter expressed in CHO-K1 cells (Homo sapiens, UniProt Q01959); conditions: read-out: Inhibition of monoamine uptake, Human DA, IC50
[6] = target: T3, dopamine uptake, rat reuptake transporter (synaptosomes from male Wistar rat striatum) (Rattus norvegicus, UniProt P23977); assay: Dopamine functional uptake assay for rat reuptake transporter (synaptosomes); type: biochemical; conditions: [3H]-dopamine uptake, read-out: Inhibition of monoamine uptake, Rat DA, IC50
T3 construct: synaptosomes isolated in a 0.32 M sucrose buffer from a male Wistar rat striatum; from tissue; host or cells: male Wistar rat striatum synaptosomes
Protocol: Quantification of dopamine uptake was performed using synaptosomes isolated in a 0.32 M sucrose buffer from a male Wistar rat striatum. The uptake of radiolabelled dopamine by synaptosomes (20 μg of proteins/point) was allowed by incubating them for 15 minutes at 37° C. in the presence of test compounds and [^3H]-dopamine (0.1 μCi/point). The experiment was performed in a deep well.
This incubation buffer was oxygenated for 5 minutes before incubation.
See, Jankowsky et al., “Characterization of sodium-dependent [^3H]GBR-12935 binding in brain: a radioligand for selective labeling of the dopamine transport complex,” J. Neurochem. 46:1272-1276 (1986).

Question: `CN(C)CC(c1ccc(O)cc1)C1(O)CCCCC1` (racemic) [Racemic O-desmethylvenlafaxine, O-desmethylvenlafaxine] was tested. Which IC50 [1] did it give?
Answer: 76 nM

Question: What about the IC50 [2] of the same compound?
Answer: 1350 nM

Question: Which results are given for `CN(C)CC(c1ccc(O)cc1)C1(O)CCCCC1` (single isomer, unassigned; (+)) [(+)-O-desmethylvenlafaxine]?
Answer: IC50 [1]: 23 nM; IC50 ([3]; read-out: IC50 for inhibition of specific binding, NE transporter): 10600 nM; Ki ([3]; calculated Ki, read-out: (Ki) for inhibition of specific binding, NE transporter): 10500 nM; Ki ([4]; calculated Ki, read-out: (Ki) for inhibition of specific binding, 5-HT transporter): 38.3 nM; IC50 ([4]; read-out: IC50 for inhibition of specific binding, 5-HT transporter): 235 nM; IC50 [2]: 1920 nM

Question: Which IC50 [1] does the source give for `CN(C)CC(c1ccc(O)cc1)C1(O)CCCCC1` (single isomer, unassigned; (-)) [(−)-O-desmethylvenlafaxine] here?
Answer: 62 nM

Question: What about the IC50 [5] of the same compound?
Answer: 5390 nM

Question: And the IC50 [2]?
Answer: 385 nM

Question: How did the IC50 [6] turn out when `COc1ccc(C(CN(C)C)C2(O)CCCCC2)cc1` (stereo not drawn) [Venlafaxine, reference compound] was run?
Answer: 7000 nM
